Reference: publication PMC3481835 (Clinical pharmacology and therapeutics, 2011)

By UniProt entry, the sequences of proteins in these tests, tags left out.
UniProt P08684, whole entry: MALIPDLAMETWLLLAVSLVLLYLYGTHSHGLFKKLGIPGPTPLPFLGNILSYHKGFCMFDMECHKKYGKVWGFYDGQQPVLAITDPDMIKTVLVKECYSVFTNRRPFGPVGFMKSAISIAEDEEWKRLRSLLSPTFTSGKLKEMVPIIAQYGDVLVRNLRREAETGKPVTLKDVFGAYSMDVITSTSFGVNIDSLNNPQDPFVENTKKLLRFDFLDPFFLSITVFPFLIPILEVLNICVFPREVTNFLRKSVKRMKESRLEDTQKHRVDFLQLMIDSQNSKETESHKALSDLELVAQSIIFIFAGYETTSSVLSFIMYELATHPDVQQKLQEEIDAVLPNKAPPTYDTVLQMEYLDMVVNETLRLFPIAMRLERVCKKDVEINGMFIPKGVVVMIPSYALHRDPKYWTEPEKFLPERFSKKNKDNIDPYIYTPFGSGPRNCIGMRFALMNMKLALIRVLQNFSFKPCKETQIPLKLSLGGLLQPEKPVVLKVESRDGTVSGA

Key:
CYP3A4 [1] = biological target: T1, CYP3A4 (Homo sapiens, UniProt P08684); experiment: Formation clearance; type: in vivo
CYP3A4 [2] = biological target: T1, CYP3A4; experiment: In vivo IC50 and maximum inhibition
CYP3A4 [3] = biological target: T1, CYP3A4; type: in vivo
[4] = 200 or 400 mg itraconazole, p<0.017

decrease in CLf of cortisol and cortisone hydroxylation (CYP3A4 [1]; 50 mg itraconazole, not significant): 24%
decrease in CLf of cortisol and cortisone hydroxylation (CYP3A4 [1]; 200 mg and 400 mg itraconazole): up to 60%
decrease in 6β-hydroxycortisol CLf (CYP3A4 [1]; 400 mg itraconazole, p=0.017): 51%
decrease in 6β-hydroxycortisone CLf (CYP3A4 [1]; [4]): 34-41%
decrease in combined CLf of 6β-hydroxycortisone and 6β-hydroxycortisol (CYP3A4 [1]; [4]): 40-49%
maximum inhibition observed in vivo, cortisol and cortisone 6β-hydroxylation (CYP3A4 [2]; after itraconazole administration): 60%
RKi (IC50,in vitro/IC50,in vivo), CLf of cortisone and cortisol 6β-hydroxylation (CYP3A4 [2]; in vivo): 2.0
maximum inhibition from in vivo IC50 fits, 6β-hydroxycortisol CLf (CYP3A4 [2]; in vivo): 61%
maximum inhibition from in vivo IC50 fits, 6β-hydroxycortisone CLf (CYP3A4 [2]; in vivo): 52%
maximum inhibition from in vivo IC50 fits, combined CLf (CYP3A4 [2]; in vivo): 59%
CYP3A4 inhibition (decrease in apparent CLf) (CYP3A4 [3]; 24-48 hours after 400 mg): 48-56%
decrease in each apparent CLf (CYP3A4 [3]; 200 and 400 mg doses, p<0.017): 40-48%
Structure (SMILES): CCC(C)n1ncn(-c2ccc(N3CCN(c4ccc(OCC5COC(Cn6cncn6)(c6ccc(Cl)cc6Cl)O5)cc4)CC3)cc2)c1=O (stereo not drawn) [itraconazole]
